Measurements taken from article PMC6689897, “Drugging an undruggable pocket on KRAS” (Proceedings of the National Academy of Sciences of the …, 2019).

Legend:
[1] = tested on: NCI-H358 cells; assay: Soft agar proliferation assay in low serum; settings: soft agar and low serum conditions
[2] = tested on: 4 BRAF(v600E) cell lines (A375, RKO, Colo 201, SK-MEL-28); assay: 2D and 3D proliferation in BRAF V600E control cell lines; settings: low serum, soft agar, or high serum, adherent conditions
[3] = tested on: NCI-H358 cells; assay: pERK quantification (Meso Scale Discovery); settings: concentrations up to 50 µM, high serum
[4] = tested on: KRAS; assay: Alpha Screen PPI assays, summary over KRAS interactions (SOS1, CRAF, PI3Kα); settings: versus 1
[5] = tested on: 4 BRAF(v600E) cell lines (A375, RKO, Colo 201, SK-MEL-28); assay: pERK modulation in BRAF V600E control cell lines

Structure (SMILES): Cn1cnc(Cn2ccc3ccc(CNCc4[nH]c5ccccc5c4[C@@H]4NC(=O)c5ccc(O)cc54)cc32)c1
- antiproliferative effect [1]: significant antiproliferative effect observed only at 50 µM
- antiproliferative effect [2]: No antiproliferative effect
- pERK reduction [3]: no pERK reduction
- weaker inhibition of PPIs of GTP and GDP forms of KRAS than eutomer 1 [4]: 10 fold
- inhibition of pERK [5]: no inhibition of pERK
